The assay has as its target Transient receptor potential cation channel subfamily V member 4 (Rattus norvegicus) (UniProt Q9ERZ8). Nature of the assay: Agonist activity at rat recombinant TRPV4 expressed in HEK293 cells assessed as increase in intracellular calcium accumulation by Fluo4-AM based assay. In kind it is cell-based.

Sequences of proteins named here, by UniProt entry; tags and fusion partners are left off.
UniProt Q9ERZ8, whole entry: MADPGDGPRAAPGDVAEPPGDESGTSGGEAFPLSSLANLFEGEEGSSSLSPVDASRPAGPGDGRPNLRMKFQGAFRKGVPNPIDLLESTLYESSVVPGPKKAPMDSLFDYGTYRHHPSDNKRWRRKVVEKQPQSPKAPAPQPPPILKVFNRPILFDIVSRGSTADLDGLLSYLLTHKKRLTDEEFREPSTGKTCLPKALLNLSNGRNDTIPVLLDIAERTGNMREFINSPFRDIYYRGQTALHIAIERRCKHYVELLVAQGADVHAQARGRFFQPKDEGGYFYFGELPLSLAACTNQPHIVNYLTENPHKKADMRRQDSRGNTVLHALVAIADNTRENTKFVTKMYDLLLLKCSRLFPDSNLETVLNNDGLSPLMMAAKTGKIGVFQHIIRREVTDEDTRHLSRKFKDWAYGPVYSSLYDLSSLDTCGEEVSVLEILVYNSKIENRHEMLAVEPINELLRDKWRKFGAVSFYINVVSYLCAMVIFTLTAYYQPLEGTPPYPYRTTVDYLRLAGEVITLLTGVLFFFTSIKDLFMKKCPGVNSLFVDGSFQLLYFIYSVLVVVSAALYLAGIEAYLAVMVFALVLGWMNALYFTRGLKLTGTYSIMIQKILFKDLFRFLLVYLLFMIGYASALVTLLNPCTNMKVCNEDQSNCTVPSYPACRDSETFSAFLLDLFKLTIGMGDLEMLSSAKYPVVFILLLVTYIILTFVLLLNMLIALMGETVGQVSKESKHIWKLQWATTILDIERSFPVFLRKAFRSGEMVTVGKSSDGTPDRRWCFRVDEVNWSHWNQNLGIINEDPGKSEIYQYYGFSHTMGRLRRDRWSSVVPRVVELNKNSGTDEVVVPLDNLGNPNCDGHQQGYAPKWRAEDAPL

Calls of active or inactive are those of the source. No cut-off for these calls is given here.

Take `COc1cc(CNC(=O)CCCc2ccc(-c3ccccc3)s2)ccc1O`: the outcome was inactive.
The entry for `COc1cc(CNC(=O)CCCc2ccc(I)s2)ccc1O` is “inactive”; for `COc1cc(CNC(=O)CCCc2ccc(-c3cccnc3)s2)ccc1O` it is “inactive”.

Source of the values: ChEMBL document CHEMBL5338786, “In Silico-Guided Rational Drug Design and Synthesis of Novel 4-(Thiophen-2-yl)butanamides as Potent and Selective TRPV1 Agonists” (J Med Chem, 2023).
